{
  "sequences": {"note": "By UniProt entry, the sequences of proteins in these tests, tags left out. Residues count along the entry.", "UniProt Q07820, 171-327": "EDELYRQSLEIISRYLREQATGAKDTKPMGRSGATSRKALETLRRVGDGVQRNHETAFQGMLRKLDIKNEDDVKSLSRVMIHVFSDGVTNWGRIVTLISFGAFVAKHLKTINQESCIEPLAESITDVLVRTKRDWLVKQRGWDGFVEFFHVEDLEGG"},
  "source": "patent US10821115B2",
  "about": "“Compounds that inhibit Mcl-1 protein” (priority 2017, dated 2020)",
  "key": {"[1]": {"target": "recombinant human Mcl-1 (residues 171-327) / Bim interaction (Homo sapiens (Human), UniProt Q07820)", "experiment": "biochemical", "assay_type": "binding", "settings": "read-out: Mcl-1 HTRF IC50"}, "[2]": {"test_system": "human multiple myeloma cell line, OPM-2", "experiment": "Cell viability assay (OPM-2 10 FBS), CellTiter-Glo", "assay_type": "cell-based", "settings": "OPM-2, 16 h, read-out: OPM-2 10% FBS IC50 IP, OPM-2 cells, 10% FBS, 16 h, CellTiter-Glo", "method": "Cell viability assay (OPM-2 10 FBS)\nThe human multiple myeloma cell line, OPM-2, was cultured in complete growth medium containing RPMI 1640 and 10% fetal bovine serum (FBS). Cells were seeded into 384-well plates at 3000 cells/well density in complete growth medium containing 10% FBS, and incubated for 16 h with serially diluted test compounds in a 37° C. incubator with 5% CO2. Cell viability was tested using CellTiter-Glo® assay (Promega, Madison, Wis.) according to the manufacturer recommendations. Luminescence was determined using an EnVision® Multilabel plate reader 25 min after the addition of detection reagent. IC50 values were then calculated with Xlfit using a logistical 4-parameter fit model in GraphPad Prism (GraphPad Software, San Diego, Calif.) or in Genedata Screener® (Genedata, Basel, Switzerland)."}},
  "note": "Read-outs that look alike come from different tables or passages of the source.",
  "data": [
    {"molecule": "CO[C@@]1(c2cccnn2)/C=C/C[C@H](C)[C@@H](C)S(=O)(=O)NC(=O)c2ccc3c(c2)N(C[C@@H]2CC[C@H]21)C[C@@]1(CCCc2cc(Cl)ccc21)CO3", "note": "[Example 100004, (1 S,3′R,6′R,7′S,8′E,11′S, 12′R)-6-chloro-7′-methoxy-11′,12′-dimethyl-7′-(3-pyridazinyl)-3,4-dihydro-2H,15′H-spiro[naphthalene-1,22′-[20]oxa[13]thia[1,14]diazatetracyclo[14.7.2.0-3,6˜.0˜19,24˜]pentacosa[8,16,18,24]tetraen]-15′-one 13′,13′-dioxide]", "values": [
      {"measurement": "IC50", "setting": "[1]; TR-FRET, Mcl-1(171-327) / biotin-Bim (51-76)", "result": 72, "unit": "pM"},
      {"measurement": "IC50", "setting": "[2]", "result": 120000, "unit": "pM"}
    ]},
    {"molecule": "(1 S,3′R,6′R,7′R,8′E,11′S,12′R)-6-chloro-7′-((9aS)-hexahydropyrazino[2,1-c][1,4]oxazin-8(1H)-ylmethyl)-7′-methoxy-12′-(2-methoxyethyl)-11′-methyl-3,4-dihydro-2H, 15′H-spiro[naphthalene-1,22′-[20]oxa[13]thia[1,14]diazatetracyclo[14.7.2.0-3,6˜.0˜19,24˜]pentacosa[8,16,18,24]tetraen]-15′-one 13′,13′-dioxide [Example 11]", "values": [
      {"measurement": "IC50", "setting": "[1]; 0.1 nM Mcl-1(171-327), 0.05 nM biotin-Bim (51-76)", "result": 98, "unit": "pM"}
    ]}
  ]
}
